Three compounds from patent US8299074B2, “P38 MAP kinase inhibitors” (RespiVert Ltd., priority 2008, dated 2012) can be followed below.

By UniProt entry, the sequences of proteins in these tests, tags left out.
UniProt Q16539, whole entry: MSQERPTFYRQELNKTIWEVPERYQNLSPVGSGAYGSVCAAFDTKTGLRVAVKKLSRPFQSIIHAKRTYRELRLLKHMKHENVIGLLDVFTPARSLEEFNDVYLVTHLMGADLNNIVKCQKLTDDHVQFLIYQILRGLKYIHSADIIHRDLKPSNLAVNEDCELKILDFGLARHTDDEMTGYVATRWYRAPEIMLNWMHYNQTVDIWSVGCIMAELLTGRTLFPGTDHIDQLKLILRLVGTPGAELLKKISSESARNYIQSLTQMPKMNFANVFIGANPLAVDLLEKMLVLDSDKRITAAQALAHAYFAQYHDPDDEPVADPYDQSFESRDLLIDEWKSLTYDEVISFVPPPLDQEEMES

This assay concerns the target T1, p38 MAPK alpha (MAPK14) (Homo sapiens, UniProt Q16539).
T1 construct: purchased Invitrogen
Nature of the assay: Enzyme inhibition assay, p38 MAPK alpha (FRET, Z-LYTE, via MAPKAP-K2). It is filed as biochemical. Conditions: Table 2; read-out: Enzyme p38α IC50.

With `COCCC(=O)Nc1cc(Oc2ccc(NC(=O)Nc3cc(C(C)(C)C)nn3-c3ccc(C)cc3)c3ccccc23)ccn1` [Example 4, N-(4-(4-(3-(3-tert-Butyl-1-p-tolyl-1H-pyrazol-5-yl)ureido)naphthalen-1-yloxy)pyridin-2-yl)-3-methoxypropanamide], the IC50 (as a rule, the concentration that gives 50% inhibition) is less than 10 nM.

In the case of `CSCC(=O)Nc1cc(Oc2ccc(NC(=O)Nc3cc(C(C)(C)C)nn3-c3ccc(C)cc3)c3ccccc23)ccn1` [Example 3, N-(4-(4-(3-(3-tert-Butyl-1-p-tolyl-1H-pyrazol-5-yl)ureido)naphthalen-1-yloxy)pyridin-2-yl)-2-(methylthio)acetamide], the half-inhibitory concentration (IC50) is less than 10 nM.

Turning to `Cc1ccc(-n2nc(C(C)(C)C)cc2NC(=O)Nc2ccc(Oc3ccnc(NC(=O)C4CCOCC4)c3)c3ccccc23)cc1` [Example 2, N-(4-(4-(3-(3-tert-Butyl-1-p-tolyl-1H-pyrazol-5-yl)ureido)naphthalen-1-yloxy)pyridin-2-yl)tetrahydro-2H-pyran-4-carboxamide], the IC50 is less than 10 nM.
